Measurements: patent EP1029297B1

Sequences of proteins named here, by UniProt entry; tags and fusion partners are left off.
UniProt O70528, whole entry: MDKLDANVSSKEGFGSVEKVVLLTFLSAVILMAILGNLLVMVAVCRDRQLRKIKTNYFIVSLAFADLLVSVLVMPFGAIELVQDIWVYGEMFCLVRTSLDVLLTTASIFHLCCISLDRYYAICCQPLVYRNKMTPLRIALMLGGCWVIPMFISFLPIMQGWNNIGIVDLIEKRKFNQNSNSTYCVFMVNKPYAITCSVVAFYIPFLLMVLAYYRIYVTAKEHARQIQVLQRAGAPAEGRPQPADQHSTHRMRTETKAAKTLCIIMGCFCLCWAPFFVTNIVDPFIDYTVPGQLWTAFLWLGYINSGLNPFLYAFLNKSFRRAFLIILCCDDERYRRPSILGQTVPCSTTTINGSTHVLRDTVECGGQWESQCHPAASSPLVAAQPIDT

Biological target: 5HT4 receptor (Cavia porcellus, UniProt O70528)
Test: screening on the 5HT4 receptor target to determine binding ability
Excerpt: According to another example, analogs to the serotonine activity on the 5-HT4 receptor (ability of compounds to inhibit 5-HT4 induced contractions of guinea-pig ileum preparations) have been retrieved according to the general-diversity scoring function of the invention. More specifically, the application of the present method to the generation of analogs of a lead compound active against 5HT4 receptors has been tested.
These compounds have been screened on the 5HT4 receptor target to determine their binding ability, and thus verify the predictability of the present method. […]

% INH (10 µM): 104%
IC50 (read-out: IC50 (NM), class symbol, affinity in the nanomolar range): 1 to 1000 nM
Compound: O=C(OCCN1CCCCC1)c1c[nH]c2ccccc12
